In patent US20080227638A1, “Use of abscisic acid to enhance growth control” (priority 2007, published 2008):

Tests used:
Format in all cases: in vivo
[1] = test system: Kentucky bluegrass; assay: Greenhouse Kentucky bluegrass height and quality, ABA and trinexapac-ethyl (Example 1); settings: 200 ppm ABA; 23 days after treatment; visual 0-9 scale
Experimental: (§1) Greenhouse studies were conducted at the Research Farm of Valent BioSciences Corporation (Long Grove, Ill.). Grasses were grown in pots (18 cm in diameter and 18 cm in height) filled with Promix BX (available from Premier Horticulture Inc. Quakertown, Pa.). Grass was irrigated daily by an overhead irrigation system. The irrigation system was set up with multiple Tornado Mist Spray Heads (10 GPH at 40 PSI-Wetted diameter, NDS/Raindrip, Woodland Hills, Calif.). Spray heads were 1-meter apart from each other and 75 cm above grass canopy. Grass was cut with a scissor at 2.5 cm height and fertilizer (1 g/L all purpose fertilizer 20-20-20, available from The Scotts Company, Marysville, Ohio) was applied once per week.
Chemical solutions were prepared with distilled water. Tween 20 (0.05% v/v) was used as an, adjuvant. […]
(§2) When treated with paclobutrazol or uniconazole-P, turfgrass received irrigation within 24 hours after application to flush chemicals to the root zone. […] Turfgrass quality, turfgrass height or clip fresh weight was measured on assigned dates. […] Turfgrass height was measured as the distance between canopy surface and soil. […]
(§3) All experiments were randomized complete block experimental design. Data were analyzed by analysis of variance. […]

[2] = test system: Kentucky bluegrass; assay: Greenhouse Kentucky bluegrass height and quality, ABA and paclobutrazol (Example 2); settings: 200 ppm ABA; 7 days after treatment; visual 0-9 scale
Experimental: as §1, with “week. […]” for “week.”
as §2, §3
Kentucky bluegrass sod (unknown variety) was purchased from Deak sod farms, Inc. (Union Grove, Wis.). […] Turfgrass quality was evaluated at 7 days after treatment, and turfgrass height was measured at 7 and 28 days after treatment. […]

[3] = test system: creeping bentgrass; assay: Golf course green creeping bentgrass height, clip weight and quality, ABA and uniconazole-P (Example 5); settings: 200 ppm ABA; throughout the study (not shown)
Experimental: Field studies were conducted at the nursery green or the practice green at Countryside golf course (Mundelein, Ill.). Both greens were sand based and growing Penncross creeping bentgrass. Grass was managed with typical Illinois golf course management practices.
Chemical solutions were prepared with distilled water. Tween 20 (0.05% v/v) was used as an, adjuvant. Both trinexapac-ethyl (commercial product Primo Maxx, 11.3% active ingredient) and paclobutrazol (commercial product Trimmit 2SC, 22.3% active ingredient) were purchased from Syngenta Crop Protection Inc. (Greensboro, N.C.). Uniconazole-P (commercial product Sumagic, 0.55% active ingredient) was obtained from Valent U.S.A. Corporation (Walnut Creek, Calif.). ABA (90% or 95% active ingredient) was obtained from Lomon BioTechnology Co., Ltd. (Shichuan, China).
When treated with paclobutrazol or uniconazole-P, turfgrass received irrigation within 24 hours after application to flush chemicals to the root zone. After treatment, turfgrasses were arranged in a randomized complete block experimental design. Turfgrass quality, turfgrass height or clip fresh weight was measured on assigned dates. […] Turfgrass height was measured as the distance between canopy surface and soil. […]
as §3

Substance: S-abscisic acid [ABA]
- Quality [1]: 8.0
- Turfgrass quality [2]: 8.0
- Effect on turfgrass quality [3]: No effect on turfgrass quality
